The entries are a selection whose mix differs from that of the whole data set. Inconclusive results are not listed. Calls of active or inactive are those of the source. The call rests on the fitted dose curve; in most records, active means well fitted activation curve with a large enough effect in the signal ratio, with a control signal flat (not every such curve was filed as active); inconclusive means small, poorly fitted or top-dose-only effect, or effect the other way, or a change in a side signal; inactive means flat fitted curve, though single readings scatter; the % refers to the signal ratio.

Consider one compound from PubChem BioAssay AID662 (National Center for Advancing Translational Sciences (NCATS), 2007).

This experiment is described as follows: Cell signaling CRE-BLA (Fsk stim). Further: % of control where 0% means no effect. Particulars: CHO CRE-bla reporter (cAMP response element driving beta-lactamase), forskolin EC10, beta-lactamase ratio; at 38.2 µM (top of the series). From the text:
NIH Molecular Libraries Screening Centers Network [MLSCN]
NIH Chemical Genomics Center [NCGC]
Assay Provider: Marshall W. Nirenberg, U.S. National heart lung & blood institute
Memories persist for different lengths of time, from seconds or minutes to a lifetime. There are two kinds of memory: short-term memory (STM) and long-term memory (LTM). STM lasts for minutes to hours, which maybe mediated by modifications of molecules involved in synaptic functions. LTM lasts for days or longer, and may be due to the formation of new synapses or restructuring of existing synapses. LTM, but not STM, requires gene transcription and synthesis of proteins. […]
Using a beta-lactamase reporter-gene under control of cAMP responsive element, a cell-based assay [CellSensor(TM) CRE-bla CHO developed by Invitrogen Corp.] was used to measure forskolin-induced signaling. Library compounds were measured for their ability to modulate positively or negatively the action of EC10 NKH 477, a water soluble forskolin, on reporter gene activity. […]
2000 cells/5uL in Opti-MEM medium containing 0.5% dialyzed FBS, 0.1 mM NEAA, 1 mM sodium pyruvate and 10 mM HEPES was dispensed into 1536-well plates and cells were cultured at 37 degrees Celsius overnight. […] After incubated at room temperature for 2 hours the plates were measured on an EnVision plate reader at Excitation 405nm, Emission1=460nm and Emission 2=530nm. […]
Take `O=[N+]([O-])C(Cl)(Cl)Cl`: the activity change, negative = inhibition was inactive: -1.73%.
